Results from paper PMC4848090, “Mechanistic insight into a peptide hormone signaling complex mediating floral organ abscission” (eLife, 2016).

By UniProt entry, the sequences of proteins in these tests, tags left out. Residues count along the entry.
UniProt P47735, 20-620, stated change not applied: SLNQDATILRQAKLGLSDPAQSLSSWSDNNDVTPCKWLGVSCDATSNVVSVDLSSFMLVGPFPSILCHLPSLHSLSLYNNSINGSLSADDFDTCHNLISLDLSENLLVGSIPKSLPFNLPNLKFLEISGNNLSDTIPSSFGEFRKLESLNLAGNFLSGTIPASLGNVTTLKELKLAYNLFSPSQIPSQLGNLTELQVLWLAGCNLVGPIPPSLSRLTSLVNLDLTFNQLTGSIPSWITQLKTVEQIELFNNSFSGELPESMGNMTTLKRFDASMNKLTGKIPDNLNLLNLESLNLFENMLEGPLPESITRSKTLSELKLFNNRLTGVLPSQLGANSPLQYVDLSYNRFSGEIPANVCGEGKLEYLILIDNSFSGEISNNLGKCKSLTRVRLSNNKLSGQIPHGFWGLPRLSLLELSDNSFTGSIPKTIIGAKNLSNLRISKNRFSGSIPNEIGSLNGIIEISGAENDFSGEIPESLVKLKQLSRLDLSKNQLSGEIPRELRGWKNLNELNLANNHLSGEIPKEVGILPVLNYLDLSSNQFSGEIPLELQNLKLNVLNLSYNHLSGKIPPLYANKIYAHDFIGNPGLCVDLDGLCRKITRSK
UniProt Q94AG2, 24-213 N115D/N163Q: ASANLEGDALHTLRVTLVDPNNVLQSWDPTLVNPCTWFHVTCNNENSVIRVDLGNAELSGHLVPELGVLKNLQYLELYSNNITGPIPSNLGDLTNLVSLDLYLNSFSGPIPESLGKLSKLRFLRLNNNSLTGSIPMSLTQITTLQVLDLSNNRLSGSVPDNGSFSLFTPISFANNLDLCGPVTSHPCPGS

Columns and labels:
[1] = molecular target: T1, HAESA - SERK1 ectodomain mixture (Arabidopsis thaliana, UniProt P47735+Q94AG2, N115D/N163Q); assay: Isothermal titration calorimetry of IDA peptides titrated into a 1:1 HAESA – SERK1 ectodomain mixture; format: binding; settings: ITC
T1 construct: Synthetic genes coding for the Arabidopsis thaliana HAESA (residues 20–620) and SERK1 ectodomains; SERK1 ectodomains (residues 24–213, carrying Asn115→Asp and Asn163→Gln mutations); azurocidin signal peptide (N); made in house; host or cells: Trichoplusia ni Tnao38 insect cells (baculovirus, secreted); proteins expressed and purified separately, then mixed 1:1
Excerpt: Synthetic genes coding for the Arabidopsis thaliana HAESA (residues 20–620) and SERK1 ectodomains (residues 24–213, carrying Asn115→Asp and Asn163→Gln mutations), codon optimized for expression in Trichoplusia ni (Geneart, Germany), were cloned into a modified pBAC-6 transfer vector (Novagen, Billerica, MA), providing an azurocidin signal peptide and a C-terminal TEV (tobacco etch virus protease) cleavable Strep-9xHis tandem affinity tag. Recombinant baculoviruses were generated by co-transfecting transfer vectors with linearised baculovirus DNA (ProFold-ER1, AB vector, San Diego, CA) followed by viral amplification in Spodoptera frugiperda Sf9 cells. […] The purified HAESA ectodomain was incubated with a synthetic IDA peptide (YVPIPPSA-Hyp-SKRHN, the N-terminal Tyr residue was added to allow for peptide quantification by UV absorbance) and the SERK1 ectodomain in 1:1:1.5 molar ratio. […]
ITC experiments were performed using a Nano ITC (TA Instruments, New Castle, DE) with a 1.0 mL standard cell and a 250 μL titration syringe. […] Molar protein concentrations for SERK1 and HAESA were calculated using their molar extinction coefficient and a molecular weight of 27,551 and 74,896 Da, respectively (determined by MALDI-TOF mass spectrometry). […] Data were analyzed using the NanoAnalyze program (version 2.3.6) as provided by the manufacturer.

[2] = tested on: HAESA and SERK1 ectodomains; assay: Analytical size-exclusion chromatography of HAESA – SERK1 ectodomain complex formation with peptide; format: binding, Arabidopsis thaliana; settings: Superdex 200 HR 10/30, 20 mM citric acid pH 5, 100 mM NaCl; peptide 25 μM; HAESA and SERK1 1:1 molar ratio; UV 280 nm
Protocol: Gel filtration experiments were performed using a Superdex 200 HR 10/30 column (GE Healthcare) pre-equilibrated in 20 mM citric acid (pH 5) and 100 mM NaCl. 100 μL of the isolated HAESA ectodomain (5.5 mg/mL), of the purified SERK1 LRR domain (3 mg/mL) or of mixtures of HAESA and SERK1 (either in the presence or absence of synthetic wild-type IDA, wild-type IDL1 or mutant IDA peptides at a concentration of 25 μM; 10 mg/mL; samples contained HAESA and SERK1 in 1:1 molar ratio) were loaded sequentially onto the column and elution at 0.5 mL/min was monitored by ultraviolet absorbance at 280 nm.

## CC[C@H](C)[C@H](NC(=O)[C@@H]1CCCN1C(=O)[C@@H](NC(=O)[C@@H](N)Cc1ccc(O)cc1)C(C)C)C(=O)N1CCC[C@H]1C(=O)N1CCC[C@H]1C(=O)N[C@@H](CO)C(=O)N[C@@H](C)C(=O)N1C[C@H](O)C[C@H]1C(=O)N[C@@H](CO)C(=O)N[C@@H](C)C(=O)N[C@@H](C)C(=O)N[C@@H](Cc1c[nH]cn1)C(=O)N[C@@H](CC(N)=O)C(=O)O [IDA K66A/R67A]
[1]; 25°C, pH 5.0, 150 μM peptide into 10 μM 1:1 HAESA – SERK1 mixture, ± fitting errors
  N (stoichiometry), protein in cell: HAESA - SERK1: 0.96 ±0.05
[1]; mutant peptide compared with wild-type IDA
  fold reduced binding affinity when titrated in a HAESA/SERK1 protein solution: 10 fold
[2]
  HAESA – SERK1 complex formation in size exclusion chromatography: do not form biochemically stable HAESA-IDA-SERK1 complexes
